Literature values in paper PMC9398548 (European journal of pharmaceutical sciences : official …, 2020).

Amino acid sequences for entries named in this document (tags omitted). Residues count along the entry.
UniProt P56524, 655-1084 limits assumed: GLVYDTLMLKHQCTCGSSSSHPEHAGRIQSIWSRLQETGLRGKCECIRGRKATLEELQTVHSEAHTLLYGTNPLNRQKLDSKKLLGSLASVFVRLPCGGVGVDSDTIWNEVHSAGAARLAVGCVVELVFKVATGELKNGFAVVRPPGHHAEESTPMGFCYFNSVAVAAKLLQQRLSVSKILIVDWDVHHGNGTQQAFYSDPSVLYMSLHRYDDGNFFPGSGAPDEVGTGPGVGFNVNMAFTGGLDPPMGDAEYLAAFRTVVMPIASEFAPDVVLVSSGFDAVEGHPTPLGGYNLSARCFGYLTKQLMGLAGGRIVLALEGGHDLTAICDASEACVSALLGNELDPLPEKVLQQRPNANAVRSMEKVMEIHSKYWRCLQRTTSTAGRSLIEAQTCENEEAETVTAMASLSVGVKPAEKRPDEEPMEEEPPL

Target: HDAC4 (Homo sapiens, UniProt P56524)
Conditions: read-out: HDAC4 IC50; ref Kleinschek, A., et al. (2016); cited from earlier work

Question: For `COc1ccc(Cn2ccc3ccc(C(=O)NO)cc32)cc1` [PCI-34051], which IC50 is on record?
Answer: Its IC50 is 10 µM.
